system: Ceritinib resistant MGH049 cells; assay: Cell colony formation assay with ceritinib resistant MGH049 cells;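 further: tested compounds are SHP2 inhibitors given alone, colonies fixed and crystal violet stained, DMSO reference taken as the mean of six readings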; type: cell-based; conditions: Homo sapiens, 168 h, read-out: Normalized Crystal Violet abs. (590 nm) DMSO
Procedure: The cell colony formation assay with ceritinib resistant MGH049 cells were used to assess the anti-proliferative effect of ceritinib in combination with SHP2 inhibitors of Table 1.
Ceritinib resistant MGH049 cells were plated into 12-well tissue culture plates (2×10^5 cells/well) in a total volume of 0.5 mL. After 24 hours, compounds were added to the plates. Cells were exposed for 7 days to either DMSO, ceritinib (0.5 μM), a compound of Table 1 (3 μM), or the combination of ceritinib (0.5 μM) and a compound of Table 1 (3 μM). At the end points of the assays, cells were fixed, stained with crystal violet, and photographed. The crystal violet staining was then extracted in 20% acetic acid and measured as absorbance at 590 nm in duplicates. The absorbance was normalized to the average of six readings in DMSO (without compound) which was set at 100.

| Structure (SMILES) | activity at 3 µM [%] |
| --- | --- |
| C[C@@H]1OCC2(CCN(c3nc4n[nH]c(-c5ccnc(NC6CC6)c5Cl)c4c(=O)n3C)CC2)[C@@H]1N [compound 42, 6-((3S,4S)-4-amino-3-methyl-2-oxa-8-azaspiro[4.5]decan-8-yl)-3-(3-chloro-2-(cyclopropylamino)pyridin-4-yl)-5-methyl-2,5-dihydro-4H-pyrazolo[3,4-d]pyrimidin-4-one] | 51.7 |
| CC1(CN)CCN(c2cnc(Sc3cccnc3C(F)(F)F)c(N)n2)CC1 [Compound No. 4, 6-(4-(aminomethyl)-4-methylpiperidin-1-yl)-3-((2-(trifluoromethyl)pyridin-3-yl)thio)pyrazin-2-amine] | 97.1 |
| Nc1nccc(Sc2cnc(N3CCC4(CCC[C@H]4N)CC3)cn2)c1Cl [compound 23, (R)-8-(5-((2-amino-3-chloropyridin-4-yl)thio)pyrazin-2-yl)-8-azaspiro[4.5]decan-1-amine] | 34.8 |
| CC1(CN)CCN(c2cnc(-c3cccc(Cl)c3Cl)c(N)n2)CC1 [compound 3, 6-(4-(aminomethyl)-4-methylpiperidin-1-yl)-3-(2,3-dichlorophenyl)pyrazin-2-amine] | 90.2 |

Source: patent US12053470B2, “Pharmaceutical combination comprising an ALK inhibitor and a SHP2 inhibitor” (Novartis AG, priority 2017, dated 2024)
